Test system: ConA cells
Experiment: Drug sensitivity (growth inhibition) assay, ConA cells
Assay type: cell-based, mouse
Details: Compound 102 (10 μM), fold resistance

Q: `COc1cc2c(c(OC)c1OC)-c1ccc(OC)c(=O)cc1[C@@H](NC(C)=O)CC2` [Colchicine, colchicine] was tested. Which “Change in sensitivity (x-fold)” value did it give?
A: The value was 1 x-fold.
